Data on one substance can be found in US9534016B2, “Netrin loop peptide mimetics and uses thereof” (Buck Institute for Research on Aging, priority 2011, dated 2017).

The chains behind the UniProt entries cited, without tags or fusion partners. Where a name states a change or a piece, a line headed by the entry shows the natural chain unless it says otherwise.
UniProt P05067: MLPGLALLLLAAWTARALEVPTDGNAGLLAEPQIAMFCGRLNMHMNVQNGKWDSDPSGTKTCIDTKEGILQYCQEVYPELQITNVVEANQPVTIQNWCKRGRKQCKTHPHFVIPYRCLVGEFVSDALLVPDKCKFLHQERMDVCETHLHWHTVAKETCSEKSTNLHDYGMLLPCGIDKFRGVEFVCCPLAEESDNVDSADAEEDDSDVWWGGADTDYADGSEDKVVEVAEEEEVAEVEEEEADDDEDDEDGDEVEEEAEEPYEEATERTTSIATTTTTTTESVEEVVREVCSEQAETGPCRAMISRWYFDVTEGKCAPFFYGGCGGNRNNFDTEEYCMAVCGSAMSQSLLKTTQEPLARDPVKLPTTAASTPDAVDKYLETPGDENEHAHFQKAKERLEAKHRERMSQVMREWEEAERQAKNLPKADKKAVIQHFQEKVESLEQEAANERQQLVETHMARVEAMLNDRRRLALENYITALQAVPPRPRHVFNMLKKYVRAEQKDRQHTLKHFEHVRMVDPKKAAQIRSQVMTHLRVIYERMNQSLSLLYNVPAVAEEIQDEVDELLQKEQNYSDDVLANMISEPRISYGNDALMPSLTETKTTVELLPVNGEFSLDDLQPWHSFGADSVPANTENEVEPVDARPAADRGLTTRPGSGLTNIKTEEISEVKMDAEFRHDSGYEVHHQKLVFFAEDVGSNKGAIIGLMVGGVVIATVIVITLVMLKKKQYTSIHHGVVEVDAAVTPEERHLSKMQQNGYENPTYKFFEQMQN

Experiment [1] concerns ERK phosphorylation associated with APP based cell signaling. As to the kind of experiment: ERK phosphorylation, Western blot, B103 cells co-transfected with APP. From the text:
This effect is not seen with cyclic peptide-2 or cyclic peptide-3. Netrin-1 induces ERK phosphorylation both in APP cells and in cells without APP such as having DCC. Cyclic peptide-1 is APP specific
ERK phosphorylation is associated with cell signaling. […] This assay was based on a western blot analysis.
(In general: In western blotting, separated proteins are transferred to a membrane and probed.)

A further experiment deals with eAPP575-624 (Homo sapiens, UniProt P05067). The experiment is described as follows: Surface plasmon resonance (SPR) binding to eAPP fragments. As to conditions: data shown for eAPP575-624.
Another experiment concerns sAPPα/Aβ42 ratio. As to the kind of experiment: sAPPα/Aβ42 ratio by AlphaLisa assay in APP transfected cells. (Bead proximity is the source of the signal in Alpha formats.)

C-I-D-P-C: in experiment [1] (APP cells versus cells without APP), the “specificity of ERK phosphorylation for APP” value was “APP specific”. For the same substance, the ERK phosphorylation entry in experiment [1] (Western blot, APP cells (B103 co-transfected with APP), cyclic peptide-1 at 21 uM) was “ERK phosphorylation”. Besides, in experiment [1] (cyclized loop peptides prepared and tested), the “modulate ERK phosphorylation and/or switch APP processing from aberrant to normal” value is recorded as “shown to modulate ERK phosphorylation and/or to switch APP processing from aberrant to normal”. Moreover, at eAPP575-624, the “binding to eAPP fragments by SPR” value was “binds eAPP fragments”. Besides, the sAPPalpha/Abeta42 ratio result in the experiment on sAPPα/Aβ42 ratio (100 μM in APP CHO cells) is “specific increase”. Also, the sAPPα/Aβ42 ratio entry with sAPPα/Aβ42 ratio (AlphLisa assay, stably transfected APP in B103 cells, over untreated controls) was “specific increase”.
